The nature of test [1]: IC50 of Artemis nuclease activity blockers – biochemical, fluorescence intensity, dose response (AID 720701).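 Note: Artemis endonuclease enzyme.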 In kind it is functional.
Test [2] has as its target T1, E3 ubiquitin-protein ligase XIAP (Homo sapiens, UniProt P98170). The test can be described thus: SAR analysis of Antagonists of XIAP-Bir3 domain of IAP-family anti-apoptotic proteins. [Related pubchem assays (depositor defined):AID1018, AID1449, AID1513, AID1514, AID1638].
In test [3] the target is T1, E3 ubiquitin-protein ligase XIAP. The test can be described thus: SAR analysis of Antagonists of IAP-family anti-apoptotic proteins. [Related pubchem assays (depositor defined):AID1018, AID1449, AID1513, AID1514, AID1638].
Test [4] deals with T2, Protein phosphatase methylesterase 1 (Homo sapiens, UniProt Q9Y570).
T2 sequence (Q9Y570 whole entry): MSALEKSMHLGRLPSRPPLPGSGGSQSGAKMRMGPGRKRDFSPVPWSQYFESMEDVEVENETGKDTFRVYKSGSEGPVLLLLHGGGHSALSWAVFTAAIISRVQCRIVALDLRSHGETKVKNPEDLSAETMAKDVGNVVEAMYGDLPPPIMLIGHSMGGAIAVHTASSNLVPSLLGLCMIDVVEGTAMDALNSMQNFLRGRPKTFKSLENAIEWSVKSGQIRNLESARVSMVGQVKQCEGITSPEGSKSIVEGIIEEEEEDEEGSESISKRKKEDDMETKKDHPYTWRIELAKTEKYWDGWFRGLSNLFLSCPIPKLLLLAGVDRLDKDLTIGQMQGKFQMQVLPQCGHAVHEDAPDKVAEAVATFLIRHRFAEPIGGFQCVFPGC
Kind of test: endogenous PME-1 and serine hydrolase inhibition – cell lysate, mouse brain cytosol, FP-rhodamine, gel ABPP, selectivity assay for PME-1 inhibitor project, dose response, panel member PME-1 Assay Panel member description: Inhibition of endogenously expressed PME-1 (AID 2366).

Amino acid sequences for entries named in this document (tags omitted). A change or cut given only in a name is not applied to a line headed by its entry.
UniProt P98170, whole entry: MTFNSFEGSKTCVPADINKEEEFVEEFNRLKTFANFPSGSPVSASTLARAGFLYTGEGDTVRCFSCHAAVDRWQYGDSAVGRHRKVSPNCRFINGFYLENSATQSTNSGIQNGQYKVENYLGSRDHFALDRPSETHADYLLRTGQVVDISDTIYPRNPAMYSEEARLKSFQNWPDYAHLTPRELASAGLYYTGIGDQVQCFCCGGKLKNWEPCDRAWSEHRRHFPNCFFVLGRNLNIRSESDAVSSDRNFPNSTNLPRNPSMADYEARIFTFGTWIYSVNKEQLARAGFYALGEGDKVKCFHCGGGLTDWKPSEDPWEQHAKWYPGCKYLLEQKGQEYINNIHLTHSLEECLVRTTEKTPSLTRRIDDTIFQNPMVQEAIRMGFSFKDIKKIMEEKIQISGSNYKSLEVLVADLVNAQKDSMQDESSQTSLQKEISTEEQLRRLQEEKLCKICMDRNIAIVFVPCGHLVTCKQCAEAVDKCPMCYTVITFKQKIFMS
UniProt P05187: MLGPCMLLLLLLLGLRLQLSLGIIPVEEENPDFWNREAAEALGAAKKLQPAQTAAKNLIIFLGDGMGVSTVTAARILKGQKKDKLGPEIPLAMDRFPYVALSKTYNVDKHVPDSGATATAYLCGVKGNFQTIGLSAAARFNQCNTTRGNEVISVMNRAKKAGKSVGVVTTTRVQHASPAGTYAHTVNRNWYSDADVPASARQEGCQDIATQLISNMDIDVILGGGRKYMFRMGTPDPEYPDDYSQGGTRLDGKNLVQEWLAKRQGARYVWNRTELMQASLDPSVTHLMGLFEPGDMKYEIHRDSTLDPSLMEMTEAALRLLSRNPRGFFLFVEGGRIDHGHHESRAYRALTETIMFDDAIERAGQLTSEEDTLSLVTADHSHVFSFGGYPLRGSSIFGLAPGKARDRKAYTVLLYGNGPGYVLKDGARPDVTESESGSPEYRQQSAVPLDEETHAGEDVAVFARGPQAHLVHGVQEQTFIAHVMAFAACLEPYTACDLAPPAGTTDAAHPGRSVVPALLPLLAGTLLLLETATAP

Test [5] deals with Alkaline phosphatase, placental type (Homo sapiens, UniProt P05187). Kind of test: human placental alkaline phosphatase inhibition – biochemical, luminescence, confirmation (AID 1512). In kind it is functional.

Active and inactive are the calls of the source. Unless noted, no cut-off for these calls is given here.

One may read the IC50 as the concentration that inhibits the measured activity by half. As for `Nc1nn2c(O)c3c(nc2c1N=Nc1ccccc1)CCCC3`, in test [1], the IC50 was inactive: > 20 µM.

For the compound `CN[C@@H](C)C(=O)N[C@H](C(=O)N1CCC[C@H]1C(=O)N[C@H]1CCCc2ccccc21)C(C)C`, the IC50 is active: 3.7 µM in test [2] and active: 9.5 µM in test [3].

Turning to `N#C/C(=C\c1cccn1S(=O)(=O)c1cccc([N+](=O)[O-])c1)S(=O)(=O)c1ccc(F)cc1`, the IC50 in test [4] is active: 0.5 µM.

With `Cc1cc(C)nc(SCC(=O)c2ccc(O)c(O)c2)n1`, the IC50 in test [5] is active: 1.21 µM.

As for `Cn1c(SCC(=O)c2ccc(O)c(O)c2)nnc1-c1ccccc1`, the IC50 in test [5] is active: 4.73 µM.
